Laboratory results: ChEMBL document CHEMBL1143251 (J Med Chem, 2008)

Species: Rattus norvegicus
Assay: Ratio of Ki for rat sigma1 opioid receptor to Ki for rat sigma2 opioid receptor

SMILES: c1ccc2oc(SCCCCN3CCN(C4CCCCC4)CC3)nc2c1
- Ratio Ki: 0.89
